Results as given in PubChem BioAssay AID1135 (Sanford-Burnham Center for Chemical Genomics, 2008).
The entries are a selection whose mix differs from that of the whole data set. Calls of active or inactive are those of the source.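 The calls were made as follows: active = over 50% inhibition of tissue-nonspecific alkaline phosphatase at 20 µM in the single-dose screen; inactive = the rest.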

Amino acid sequences for entries named in this document (tags omitted). A change or cut given only in a name is not applied to a line headed by its entry.
UniProt P05186: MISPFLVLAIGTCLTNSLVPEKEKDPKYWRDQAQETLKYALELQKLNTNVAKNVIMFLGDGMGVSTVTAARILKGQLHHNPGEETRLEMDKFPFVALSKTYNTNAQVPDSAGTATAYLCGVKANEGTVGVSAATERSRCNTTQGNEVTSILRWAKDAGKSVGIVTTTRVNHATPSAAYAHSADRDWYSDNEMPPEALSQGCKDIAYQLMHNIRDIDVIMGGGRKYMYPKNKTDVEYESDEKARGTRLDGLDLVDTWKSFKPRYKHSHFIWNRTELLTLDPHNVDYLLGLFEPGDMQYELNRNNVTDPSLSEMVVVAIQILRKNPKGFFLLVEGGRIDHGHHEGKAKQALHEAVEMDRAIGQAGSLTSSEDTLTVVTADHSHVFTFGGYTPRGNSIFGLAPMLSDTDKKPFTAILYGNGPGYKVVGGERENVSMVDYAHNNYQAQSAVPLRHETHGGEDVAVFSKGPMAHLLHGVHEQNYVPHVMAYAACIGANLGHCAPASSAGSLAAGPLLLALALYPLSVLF

These compounds were tested against Alkaline phosphatase, tissue-nonspecific isozyme (Homo sapiens) (UniProt P05186) (assay: blockers of alkaline phosphatase TNAP activity – biochemical, luminescent, high phosphate acceptor level, uHTS, primary screen (AID 1135;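 also: plate controls were DMSO wells for no effect and EDTA-quenched wells as full inhibition for full effect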)). Settings: purified TNAP, CDP-star luminescence, 1 M DEA; at 20 µM; hits give high values.
In the case of `O=[N+]([O-])c1ccc2c(c1)nnn2O`, the inhibition is reported as inactive: -6.9%. `CCOP1(=S)c2c(C)nn(CCC#N)c2N=C(c2ccc(F)cc2)N1C` (stereo not drawn) was tested, and the inhibition was inactive: -2.3%. With `O=P(Nc1nccs1)(c1ccccc1)c1nc2ccccc2s1` (stereo not drawn) the inhibition was inactive: -0.1%. In the case of `O=P(Nc1nccs1)(Oc1ccccc1)Oc1ccccc1`, the inhibition is reported as inactive: -3%. `CCOP1(=S)c2c(C)nn(CCC#N)c2N=C(c2ccccc2F)N1C` (stereo not drawn) was tested, and the inhibition was inactive: -5.4%. In the case of `CCOP(=O)(Nc1cccc2ccccc12)OCC`, the inhibition is reported as inactive: 0%. For `COc1cc(C2NCCC3(OCCO3)C2(C)C)cc(OC)c1OC` (stereo not drawn), the inhibition was inactive: -3.7%. For `Cc1ccc(NCCc2c([N+](=O)[O-])cc([N+](=O)[O-])cc2[N+](=O)[O-])cc1`, the inhibition was inactive: 20%. In the case of `Cc1cccc(OCC(=O)OC2CN3CCC2CC3)c1` (stereo not drawn), the inhibition is reported as inactive: -3.8%. For `COc1cc(C(=O)NCC2(N3CCOCC3)CCCCC2)cc(Cl)c1OC(C)C`, the inhibition was inactive: -2.2%. In the case of `CC(C)/C=N\N=C(\N)N[N+](=O)[O-]`, the inhibition is reported as inactive: -2.5%. With `CN(C(=O)Cc1ccc(Cl)c(Cl)c1)[C@@H]1CCCC[C@H]1N1CCCC1` the inhibition was inactive: -7.6%. With `Clc1n[nH]nc1-c1nn[nH][15n]1` the inhibition was inactive: -4.2%. In the case of `O=P1(Nc2ccccn2)COc2ccccc2OC1`, the inhibition is reported as inactive: 0.6%. `O=P1(Nc2ccc(Br)cn2)COc2ccccc2OC1` was tested, and the inhibition was inactive: -6.5%. With `Cc1ccc(OCC(=O)OC2CN3CCC2CC3)cc1` (stereo not drawn) the inhibition was inactive: 0.3%. In the case of `O=P1(Nc2ncccn2)COc2ccccc2OC1`, the inhibition is reported as inactive: 1.9%. For `CN(C)C1(CNC(=O)c2ccc(S(C)(=O)=O)cc2)CCCCC1`, the inhibition was inactive: -7.7%. For `CC1CCC(C(C)C)C(OP(=O)(Nc2ccccn2)c2ccccc2)C1` (stereo not drawn), the inhibition was inactive: -5.3%. For `Cc1nn(-c2ccccc2)c2c1P(=O)(N1CCOCC1)N(C)C(c1ccccc1)=N2` (stereo not drawn), the inhibition was inactive: -4.8%. With `O=P(Nc1ccccn1)(c1cccc2ccccc12)c1cccc2ccccc12` the inhibition was inactive: -3.8%. With `Cc1cc(SC(NC=O)C(Cl)(Cl)Cl)ncn1` (stereo not drawn) the inhibition was inactive: -1.9%. With `Cc1cc(SC(NC(=O)c2ccccc2)C(Cl)(Cl)Cl)nc(C(C)C)n1` (stereo not drawn) the inhibition was inactive: 0.1%. `CCC(C)N(CC(C)C)C(=S)SC(NC(C)=O)C(Cl)(Cl)Cl` (stereo not drawn) was tested, and the inhibition was inactive: -6.5%. `O=C(COc1ccccc1)OC1CN2CCC1CC2` (stereo not drawn) was tested, and the inhibition was inactive: -3.1%. For `COP1(=S)c2c(C)nn(CCC#N)c2N=C(c2ccc(F)cc2)N1C` (stereo not drawn), the inhibition was inactive: -8.6%. For `COc1ccc(N/C(=N/P(=O)(N2CCOCC2)N2CCOCC2)N2CCOCC2)cc1`, the inhibition was inactive: -1%. `COc1ccc2nc(NP(=O)(c3ccccc3)c3ccccc3)sc2c1` was tested, and the inhibition was inactive: -7.1%. In the case of `Cc1cc(=O)[nH]c(N[N+](=O)[O-])n1`, the inhibition is reported as inactive: 1.6%. For `O=C(OC1CN2CCC1CC2)C12CC3CC(CC(C3)C1)C2` (stereo not drawn), the inhibition was inactive: -6.6%. For `O=[N+]([O-])c1cc([N+](=O)[O-])c(-c2ccn[nH]2)s1`, the inhibition was inactive: 6.8%. For `CCN(CC)C(=S)SC(NC=O)C(Cl)(Cl)Cl` (stereo not drawn), the inhibition was inactive: -2.9%. `CC(C)NC(=O)NP(=O)(Oc1ccccc1)Oc1ccccc1` was tested, and the inhibition was inactive: 0.5%. In the case of `ClCCSc1nnc(-c2cccnc2)o1`, the inhibition is reported as inactive: 0.3%. `Cc1ccc2nc3c(c(C)c2c1)CC(C(Cl)Cl)S3` (stereo not drawn) was tested, and the inhibition was inactive: -4%. In the case of `CCN(N=Nc1nonc1N)c1nonc1N`, the inhibition is reported as inactive: -4.8%. `CCOP(=O)(Nc1ccccc1)OCC` was tested, and the inhibition was inactive: 0%. For `Cc1cc(SC(NC(=O)c2ccc(F)cc2)C(Cl)(Cl)Cl)ncn1` (stereo not drawn), the inhibition was inactive: -1.8%. In the case of `CC(C)CC(=O)NC(Sc1ccc(Cl)cc1)C(Cl)(Cl)Cl` (stereo not drawn), the inhibition is reported as inactive: 0.8%. With `Cc1c2non([O-])c-2c(C)[n+](=O)[n+]1[O-]` the inhibition was inactive: 3.6%. With `O=C(NC(Sc1ccncn1)C(Cl)(Cl)Cl)c1ccccc1` (stereo not drawn) the inhibition was inactive: 0%. For `Oc1ccccc1CNc1ccccn1`, the inhibition was inactive: -3.8%. In the case of `COc1ccccc1OP(=O)(Nc1ccc(C)cn1)Oc1ccccc1OC`, the inhibition is reported as inactive: -4.5%. In the case of `Clc1ccc(Cl)c(NC2=NCC(CBr)S2)c1` (stereo not drawn), the inhibition is reported as inactive: -4.8%. For `CN1CCCC(OC(=O)C(c2ccccc2)c2ccccc2)C1` (stereo not drawn), the inhibition was inactive: -0.3%. `NC(=O)c1cc([N+](=O)[O-])cc([N+](=O)[O-])c1N` was tested, and the inhibition was inactive: 1.8%. `Cc1ccc(N/C(=N/P(=O)(N2CCOCC2)N2CCOCC2)N2CCOCC2)cc1` was tested, and the inhibition was inactive: -3%. In the case of `CN(C)C(=O)OCCc1n(C)cc[n+]1C`, the inhibition is reported as inactive: 0.2%. `CC(C)=N/N=C(\N)N[N+](=O)[O-]` was tested, and the inhibition was inactive: -5.6%. With `CC1CCN(C(=O)Oc2c(Cl)cc(Cl)c3cccnc23)CC1` the inhibition was inactive: -7.9%. In the case of `CCN(/C(=N/P(=O)(N1CCOCC1)N1CCOCC1)N1CCOCC1)c1ccc(OC)cc1`, the inhibition is reported as inactive: -2.5%. In the case of `O=[N+]([O-])c1cccc2n[nH]nc12`, the inhibition is reported as inactive: -3.2%. With `CC(=O)N1C2C3N(C(C)=O)C1C1N(C(C)=O)C(C(N1C(C)=O)N3C(C)=O)N2C(C)=O` the inhibition was inactive: -2%. In the case of `CCc1nc2c(n1)c1c(non1O)c1c2no[n+]1[O-]`, the inhibition is reported as inactive: -6.7%. For `O=[N+]([O-])c1cc([N+](=O)[O-])c(CCNc2ccccc2)c([N+](=O)[O-])c1`, the inhibition was inactive: 12.5%. With `Cc1ccc(NP(=O)(Oc2ccccc2)Oc2ccccc2)nc1` the inhibition was inactive: -1.5%. With `COc1ccc(C2=NCC(CBr)S2)cc1` (stereo not drawn) the inhibition was inactive: 0.4%. With `O=[N+]([O-])c1ncn(CCn2ncnc2[N+](=O)[O-])n1` the inhibition was inactive: 1.8%. With `C(Cc1nn[nH]n1)Cc1nn[nH]n1` the inhibition was inactive: -7.2%. For `O=C(OC1CN2CCC1CC2)c1cccc(Cl)c1` (stereo not drawn), the inhibition was inactive: -4.3%. `CC(=O)NC(SC(=S)N(C)C)C(Cl)(Cl)Cl` (stereo not drawn) was tested, and the inhibition was inactive: 2.1%. `O=P(Nc1ccccn1)(c1ccc(Br)cc1)c1ccc(Br)cc1` was tested, and the inhibition was inactive: 0%. `c1nnnn1CCn1cnnn1` was tested, and the inhibition was inactive: -4.6%. `CC(C)C(=O)NC(Sc1ccccc1)C(Cl)(Cl)Cl` (stereo not drawn) was tested, and the inhibition was inactive: -1.6%. In the case of `O=P(Nc1nccs1)(c1ccccc1)c1ccccc1`, the inhibition is reported as inactive: 2.9%. With `CC(=O)Nc1ccc(Oc2c([N+](=O)[O-])cc([N+](=O)[O-])cc2[N+](=O)[O-])cc1` the inhibition was inactive: 0.5%. In the case of `CC(C)(C)C(=O)NC(Sc1ccccc1)C(Cl)(Cl)Cl` (stereo not drawn), the inhibition is reported as inactive: -1.2%. For `CCOc1ccc(C2=NCC(CBr)S2)cc1` (stereo not drawn), the inhibition was inactive: -1.1%. In the case of `O=P1(Nc2nc3ccc(Cl)cc3s2)COc2ccccc2O1` (stereo not drawn), the inhibition is reported as inactive: -0.7%. `O=c1c2cc([N+](=O)[O-])ccc2[nH]c2c([N+](=O)[O-])cc([N+](=O)[O-])cc12` was tested, and the inhibition was inactive: 31.4%. For `CC(=O)NC(SC(=S)N(CC(C)C)CC(C)C)C(Cl)(Cl)Cl` (stereo not drawn), the inhibition was inactive: -2.2%. With `Cc1ccc(OP(=O)(Nc2ccccn2)Oc2ccc(C)cc2)cc1` the inhibition was inactive: 1.1%. In the case of `COC(=O)c1cc2c(s1)N=C(c1ccccc1)N(C)P2(=O)N1CCOCC1` (stereo not drawn), the inhibition is reported as inactive: -3.3%. For `CCC(=O)N1C2C3N(C(=O)CC)C1C1N(C(=O)CC)C(C(N1C(=O)CC)N3C(=O)CC)N2C(=O)CC`, the inhibition was inactive: -2.2%. For `CCNC(=S)/N=C(\N)N[N+](=O)[O-]`, the inhibition was inactive: -1.5%. With `O=C(NC1CCS(=O)(=O)C1)NP(=S)(Oc1ccccc1)Oc1ccccc1` (stereo not drawn) the inhibition was inactive: -3.2%. With `CCOC(=O)NC(Sc1ccccc1)C(Cl)(Cl)Cl` (stereo not drawn) the inhibition was inactive: 0.3%. `c1ccc(-c2nn[nH]n2)c(-c2nn[nH]n2)c1` was tested, and the inhibition was inactive: -2.4%.
